Experimental data taken from patent publication US8232099B2, “Method for transcription/degradation dual control of protein by antibiotic” (Japan Science and Technology Agency, priority 2007, dated 2012).
Residues, ends and D or L forms follow the SMILES beside them. *: point of attachment. Cbz = O=C(OCc1ccccc1)*

Amino acid sequences for entries named in this document (tags omitted).
UniProt P04483, whole entry D95N/L101S/G102D: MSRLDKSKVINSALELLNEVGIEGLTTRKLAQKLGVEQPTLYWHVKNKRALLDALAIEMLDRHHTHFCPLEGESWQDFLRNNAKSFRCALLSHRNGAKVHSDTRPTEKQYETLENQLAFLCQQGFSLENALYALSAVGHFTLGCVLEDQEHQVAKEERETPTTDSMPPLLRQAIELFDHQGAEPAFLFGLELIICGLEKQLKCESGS

Target: T1, mutant TetR-EGFP (Escherichia coli, UniProt P04483, D95N/G102D/L101S)
T1 construct: prepare a DNA fragment encoding TetR with no termination codon; expressed in transfected cells; host or cells: human cell line HEp-2, vector pEB6CAG
Test: Flow cytometer fluorescence of HEp-2 cells expressing mutant TetR-EGFP
Format: cell-based, human
Details: 100 μg/ml MG132, 12 hours
Source text: All of or any two mutations in combination from three types of mutations, which substitute aspartic acid at the 95th position with asparagine, leucine at the 101st position with serine and glycine at the 102nd position with aspartic acid, were introduced into the tetracycline repressor (TetR), which is an Escherichia coli protein that binds to the antibiotic tetracycline (Tet). The procedure was as follows:
An oligonucleotide encoding an amino acid sequence containing the amino acid substitution to be introduced was synthesized, and this was used to prepare a DNA fragment containing a mutation by PCR reaction. […]
An oligo-DNA was synthesized, having a base sequence in which the termination codon has been substituted so as to encode another amino acid instead of the termination codon in the TetR gene, and downstream thereof, a sequence that is recognized and cut by a restriction enzyme; this was used to carry out a PCR reaction to prepare a DNA fragment encoding TetR with no termination codon, and this was substituted with the corresponding site on the DNA encoding the wild-type gene. Then, the DNA was cut by a restriction enzyme and ligated with the upstream side of a DNA fragment encoding EGFP in such a way that the translation open reading frames for protein synthesis match (FIG. 1A). […]

CC(C)C[C@@H](C=O)NC(=O)[C@H](CC(C)C)NC(=O)[C@H](CC(C)C)NC(=O)OCc1ccccc1 [MG132] (Cbz-Leu-Leu-Leu-aldehyde)
change in intensity of fluorescence: remarkable enhancement of fluorescence
